# Data: patent US20100330076A1
# By UniProt entry, the sequences of proteins in these tests, tags left out. Residues count along the entry.
# UniProt P12318, 34-217: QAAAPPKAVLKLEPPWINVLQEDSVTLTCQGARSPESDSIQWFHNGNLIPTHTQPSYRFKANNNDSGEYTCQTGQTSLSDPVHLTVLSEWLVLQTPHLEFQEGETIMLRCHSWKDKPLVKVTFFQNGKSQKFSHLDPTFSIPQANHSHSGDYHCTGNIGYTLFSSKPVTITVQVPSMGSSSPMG
# Molecular target: extracellular domain of FcγRIIa C-terminal fused to GST (Berntzen et al., 2005) (human) (UniProt P12318)
# Experiment: ELISA, IgG coated, serially diluted FcγRIIa-GST, anti-GST-HRP; the reference is not named (presumably glycosylated trastuzumab)
substance,measurement,value
wild type aglycosylated trastuzumab (full length IgG1 purified from E. coli) (antibody),fold higher EC50,> 1000 fold
